Binding of CDR-mutated scFvs to a peptide of the spike HR2 region

The target is the same throughout: PDVDLGDISGINAS, from the HR2 region of SARS-CoV-2 spike.

The variants keep the light chain, the linker and the frameworks of Ab-14 (scFv order VH, a 15-residue (Gly4Ser)3 linker, VL).
VH: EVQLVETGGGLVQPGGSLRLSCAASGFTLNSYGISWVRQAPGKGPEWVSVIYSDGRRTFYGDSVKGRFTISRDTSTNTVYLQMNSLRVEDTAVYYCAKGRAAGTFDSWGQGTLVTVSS
VL: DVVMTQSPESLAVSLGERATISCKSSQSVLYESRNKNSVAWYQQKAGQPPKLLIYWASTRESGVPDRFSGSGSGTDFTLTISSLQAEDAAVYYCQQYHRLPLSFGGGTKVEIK

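The parent was found by panning a naive human phage display library on the peptide. The library (AAYL49) carries one to three amino acid substitutions per variant, with no insertions or deletions. In AlphaSeq, yeast of one mating type display the scFv and yeast of the other type display the target. Pairs that bind mate more often; barcode pairs of the diploids are counted by sequencing. Each replicate has its own calibration line, from reference interactions of the BCL2 family. Mating was done three times.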

Each variant is given by its three heavy chain CDRs, as the data file delimits them; those of the parent are GFTLNSYGIS, VIYSDGRRTFYGDSVK, GRAAGTFDS. Affinities are written as log10 Kd with Kd in nM; a lower number is a better binder. A mean of the replicates is given; it leaves out those without a signal. A pair that was not seen in that replicate is written "n.d."; this usually means weak binding, but a binder can also be missed. Nonspecific signal, from three strains lacking the peptide, appeared in 15% of pairings of library AAYL49, centred on 4.06 (5% of these signals below 2.83); values are not corrected for it. For each scFv, signals with the empty controls are counted beside the result, with their mean in brackets.

| CDR-H1 | CDR-H2 | CDR-H3 | log10 Kd (nM) by replicate | log10 Kd (nM), mean | empty controls |
|---|---|---|---|---|---|
| GFTLNSYGIA | VIYSDGRRTFYQDSVK | GRAAGTFGS | n.d. / 2.82 / 4.66 | 3.74 | 5 of 9 (3.70) |
| GFTLESYGIS | VIYSDGRRTFYGDSVK | QRAAGTFMS | 0.34 / 0.61 / 0.49 | 0.48 | 1 of 9 (5.61) |
| GFTLNSYGIS | VIYSDGPRTFYGDSVY | GVAAGTFDS | n.d. / 2.98 / n.d. | 2.98 | 3 of 9 (3.49) |
| GFTLVSYGIS | PIYSDGRRTFYGDSVK | GRALGTFDS | n.d. / n.d. / n.d. | n.d. | 1 of 9 (4.36) |
| DFTWNSYGIS | VIYSDGRRTFYGESVK | GRAAGTFDS | n.d. / n.d. / n.d. | n.d. | 0 of 9 |
| DFTENSYGIS | VIYSDGRRTFYGDSVM | GRAAGTFDS | n.d. / n.d. / n.d. | n.d. | 2 of 9 (4.10) |
| GTTLNSYGII | GIYSDGRRTFYGDSVK | GRAAGTFDS | n.d. / 3.21 / n.d. | 3.21 | 4 of 9 (3.83) |
| GFTLNSYGIS | VIYSDGRRTFYGDSVM | GRAAGTFRS | 1.76 / 1.77 / 1.65 | 1.73 | 2 of 9 (3.69) |
| GFTLNSYGIQ | VIYSDGRRTFYGMSVK | GRTAGTFDS | n.d. / n.d. / n.d. | n.d. | 0 of 9 |
| GFTLNSRGIS | VMYSDGRRTFYGDSVK | GRAAGTFDS | n.d. / n.d. / n.d. | n.d. | 0 of 9 |
| GFKLNSYGIS | VIYSDDRRTFYGDSVK | GRRAGTFDS | n.d. / n.d. / n.d. | n.d. | 0 of 9 |
| GFSLNSYGIS | VIYSDGRRTFYGDSVM | GRAAGTFFS | 1.24 / 1.20 / 1.16 | 1.20 | 2 of 9 (3.99) |
| GFTLNSYGIC | VIYEDGRRIFYGDSVK | GRAAGTFDS | n.d. / 3.40 / 3.67 | 3.53 | 1 of 9 (3.22) |
| GFTLNSYGIS | VIYSDGNCTFYTDSVK | GRAAGTFDS | n.d. / n.d. / n.d. | n.d. | 0 of 9 |
| GFTINSYGIS | VIYSDGPRTFYGDSVK | GFAAGTFDS | n.d. / n.d. / n.d. | n.d. | 0 of 9 |
| GFTKNSYGIS | VIYSDGRRTFYTDSVK | GRAAGTFDP | n.d. / n.d. / n.d. | n.d. | 0 of 9 |
| GFTLFSYGIS | NIYSDGRRHFYGDSVK | GRAAGTFDS | n.d. / n.d. / n.d. | n.d. | 0 of 9 |
| GFTLNSYGIS | VPYSDGRRTVYGDSVK | GRADGTFDS | n.d. / n.d. / n.d. | n.d. | 0 of 9 |
| GYTLNSYGIE | VIYSDKRRTFYGDSVK | GRAAGTFDS | n.d. / 3.25 / 3.76 | 3.50 | 2 of 9 (3.41) |
| GFTLNSYGIS | VIESDGRRTNYGDSVK | GPAAGTFDS | n.d. / n.d. / n.d. | n.d. | 1 of 9 (3.03) |
| GFTLNSYGIS | GIYHDGRRTWYGDSVK | GRAAGTFDS | 5.91 / n.d. / 4.23 | 5.07 | 0 of 9 |
| GFMLNSYGIS | VIYSDGSRTFYGLSVK | GRAAGTFDS | 4.93 / n.d. / n.d. | 4.93 | 0 of 9 |
| IFTLNSYGIS | VIYSDGRRTFYGDSVK | GREAGTFDS | 1.85 / 1.83 / 2.25 | 1.98 | 1 of 9 (4.91) |
| GFTLNSYGIS | VINSDGRRTFGGDSHK | GRAAGTFDS | n.d. / 5.08 / n.d. | 5.08 | 3 of 9 (4.21) |
| GFTLNSYGIS | VIYSDGRRIFYGDSVK | PRCAGTFDS | n.d. / n.d. / 5.06 | 5.06 | 0 of 9 |
| GFTLNSYGIS | VIMSDGRRTFYGDSVK | GRAAGTFDS | n.d. / 3.18 / n.d. | 3.18 | 1 of 9 (5.12) |
| GFTLNSYGIS | VIYSDGRRLFYGDMVK | DRAAGTFDS | n.d. / n.d. / n.d. | n.d. | 0 of 9 |
| GFTLNSYGIS | VIESDGRRTFYGDKVK | GRAVGTFDS | n.d. / 3.73 / n.d. | 3.73 | 1 of 9 (4.20) |
| GFTLNSYGIS | RIYSDGRGTFYGDSVK | GRAANTFDS | n.d. / 4.09 / n.d. | 4.09 | 2 of 9 (3.35) |
| GFTDNSYGIS | VIYCDGRRTFYGDSVK | GRAAWTFDS | n.d. / n.d. / n.d. | n.d. | 0 of 9 |
| GFTANSYGIS | VIYSDGRRTAYGDSVK | GRLAGTFDS | 0.93 / 1.16 / 1.07 | 1.05 | 4 of 9 (4.28) |
| EFTLNSYGIS | VIYSDGRRTFYGDSVK | KDAAGTFDS | 4.09 / n.d. / 2.93 | 3.51 | 0 of 9 |
| GFTLNYYGIS | VIYSDGRRHFYGDSVK | GRAACTFDS | 3.12 / 3.30 / 3.59 | 3.34 | 2 of 9 (3.58) |
| GFTRNSYGTS | VIYSDGRRTPYGDSVK | GRAAGTFDS | 4.53 / 4.66 / 3.53 | 4.24 | 4 of 9 (4.29) |
| GLTLLSYGIS | VIYSDGRRTFYGDSVK | GRYAGTFDS | 1.40 / 1.45 / 1.46 | 1.44 | 2 of 9 (4.42) |
| GFTLNSYGIS | VIYSDGRRDFYGDSVK | GRAAGTHDS | n.d. / n.d. / n.d. | n.d. | 0 of 9 |
| GFTLNSYGIS | VIYSDGGRPFYGDSVK | GRAAGTFDS | n.d. / n.d. / n.d. | n.d. | 2 of 9 (3.64) |
| GFTLNSYGIS | VIYQDGLRTFYGDSVA | GRAAGTFDS | n.d. / n.d. / n.d. | n.d. | 1 of 9 (4.88) |
| GFTLNSYGIS | VSYSDGRRPFYGDSVK | LRAAGTFDS | n.d. / n.d. / n.d. | n.d. | 1 of 9 (4.12) |
| GFTLNSYGII | VRYSDGRRTFYGDSVK | GRAAGTVDS | n.d. / n.d. / n.d. | n.d. | 1 of 9 (3.15) |
| GKILNSYGIS | VIYSDIRRTFYGDSVK | GRAAGTFDS | 3.35 / n.d. / n.d. | 3.35 | 1 of 9 (3.75) |
| GFTTNSYGIS | VIYSDGRRRFYGDSVY | GRAAGTFDS | 4.39 / n.d. / 5.38 | 4.89 | 7 of 9 (4.49) |

4 of these entries, quoted again:

{"CDR-H1": "GFTLNSYGIC", "CDR-H2": "VIYEDGRRIFYGDSVK", "CDR-H3": "GRAAGTFDS", "log10 Kd (nM) by replicate": "n.d. / 3.40 / 3.67", "log10 Kd (nM), mean": "3.53", "empty controls": "1 of 9 (3.22)"}
{"CDR-H1": "GFTLNSYGIS", "CDR-H2": "VPYSDGRRTVYGDSVK", "CDR-H3": "GRADGTFDS", "log10 Kd (nM) by replicate": "n.d. / n.d. / n.d.", "log10 Kd (nM), mean": "n.d.", "empty controls": "0 of 9"}
{"CDR-H1": "GFKLNSYGIS", "CDR-H2": "VIYSDDRRTFYGDSVK", "CDR-H3": "GRRAGTFDS", "log10 Kd (nM) by replicate": "n.d. / n.d. / n.d.", "log10 Kd (nM), mean": "n.d.", "empty controls": "0 of 9"}
{"CDR-H1": "GFTLNSYGIS", "CDR-H2": "VIMSDGRRTFYGDSVK", "CDR-H3": "GRAAGTFDS", "log10 Kd (nM) by replicate": "n.d. / 3.18 / n.d.", "log10 Kd (nM), mean": "3.18", "empty controls": "1 of 9 (5.12)"}

Values reported by Engelhart et al. 2022, doi:10.1038/s41597-022-01779-4 (FLAb copy).